Consider 2 compounds from ChEMBL document CHEMBL1124092 (J Med Chem, 1988).

Chains of the proteins cited; added tags and fusions are not shown. Lines headed by an entry give the natural chain unless they say otherwise; changes in a name come on top.
UniProt P30994: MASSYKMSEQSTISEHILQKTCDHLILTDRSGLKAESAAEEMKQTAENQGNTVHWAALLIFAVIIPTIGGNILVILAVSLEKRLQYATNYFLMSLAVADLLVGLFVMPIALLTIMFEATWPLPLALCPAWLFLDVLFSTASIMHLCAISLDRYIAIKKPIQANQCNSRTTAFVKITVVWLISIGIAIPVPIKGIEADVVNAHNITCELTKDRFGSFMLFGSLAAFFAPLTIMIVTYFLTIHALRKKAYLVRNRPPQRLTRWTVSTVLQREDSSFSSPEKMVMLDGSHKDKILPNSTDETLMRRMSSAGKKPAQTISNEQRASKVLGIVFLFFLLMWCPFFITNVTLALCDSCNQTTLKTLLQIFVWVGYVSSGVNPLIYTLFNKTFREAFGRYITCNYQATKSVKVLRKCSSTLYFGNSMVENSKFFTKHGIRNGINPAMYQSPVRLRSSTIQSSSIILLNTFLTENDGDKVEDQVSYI
UniProt P08909: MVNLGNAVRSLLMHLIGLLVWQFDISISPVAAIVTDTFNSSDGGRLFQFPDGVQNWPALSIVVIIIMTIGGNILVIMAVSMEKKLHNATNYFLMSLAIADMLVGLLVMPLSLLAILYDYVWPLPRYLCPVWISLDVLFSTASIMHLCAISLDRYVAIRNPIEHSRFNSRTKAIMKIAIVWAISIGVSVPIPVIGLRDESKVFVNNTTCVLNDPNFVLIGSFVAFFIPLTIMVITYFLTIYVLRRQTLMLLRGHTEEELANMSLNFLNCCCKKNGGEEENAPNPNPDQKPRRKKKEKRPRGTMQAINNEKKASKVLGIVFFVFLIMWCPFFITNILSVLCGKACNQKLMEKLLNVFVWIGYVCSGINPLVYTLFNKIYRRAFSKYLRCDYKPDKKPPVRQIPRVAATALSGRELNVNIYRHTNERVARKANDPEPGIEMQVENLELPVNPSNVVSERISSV
UniProt P14842: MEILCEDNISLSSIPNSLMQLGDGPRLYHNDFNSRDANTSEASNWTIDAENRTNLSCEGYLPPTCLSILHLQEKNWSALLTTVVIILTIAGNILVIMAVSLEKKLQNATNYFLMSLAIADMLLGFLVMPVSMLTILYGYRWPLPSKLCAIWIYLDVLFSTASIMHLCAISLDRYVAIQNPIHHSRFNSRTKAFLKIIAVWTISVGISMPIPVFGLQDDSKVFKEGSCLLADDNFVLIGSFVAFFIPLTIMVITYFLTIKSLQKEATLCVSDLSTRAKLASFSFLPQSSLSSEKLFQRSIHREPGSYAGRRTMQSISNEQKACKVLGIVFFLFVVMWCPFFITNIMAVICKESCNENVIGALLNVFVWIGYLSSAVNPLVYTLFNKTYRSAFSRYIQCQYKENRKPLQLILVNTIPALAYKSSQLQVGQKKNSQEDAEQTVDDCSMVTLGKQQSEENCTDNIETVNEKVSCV
UniProt P28564, whole entry: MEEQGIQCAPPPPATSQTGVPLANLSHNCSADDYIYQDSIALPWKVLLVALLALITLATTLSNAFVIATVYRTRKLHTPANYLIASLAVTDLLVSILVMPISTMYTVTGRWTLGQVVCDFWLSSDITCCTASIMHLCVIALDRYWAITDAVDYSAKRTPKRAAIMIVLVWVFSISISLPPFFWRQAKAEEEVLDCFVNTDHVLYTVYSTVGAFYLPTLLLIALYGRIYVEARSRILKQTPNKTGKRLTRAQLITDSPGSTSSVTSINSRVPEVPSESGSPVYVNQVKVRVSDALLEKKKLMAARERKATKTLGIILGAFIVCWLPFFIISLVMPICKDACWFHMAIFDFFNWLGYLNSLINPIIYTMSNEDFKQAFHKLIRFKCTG

Test [1] concerns the target Serotonin 2 (5-HT2) receptor (Rattus norvegicus, UniProt P30994+P08909+P14842). Put plainly: Binding affinity towards 5-hydroxytryptamine 2 receptor using [3H]- 1-(4-bromo-2,5-dimethoxy-phenyl)-2-aminopropane (D) as radioligand. The test is classed as protein assay.
The target in test [2] is 5-hydroxytryptamine receptor 1B (Rattus norvegicus, UniProt P28564). In words: Evaluated for binding affinity towards 5-hydroxytryptamine 1B receptor.

Regarding `COc1ccc2[nH]cc(CCN)c2c1` [5-METHOXYTRYPTAMINE], the Ki (usually the dissociation constant of the complex between target and ligand, obtained from inhibition or displacement) in test [1] was 0.0048 µM.

With `CCCN(CCC)C1CCc2cccc(O)c2C1` (configuration not stated) [8-OH-DPAT], the Ki in test [2] was more than 10 µM.
